# Earlier results as cited in patent publication US9687472B2, “Use of antioxidants as an adjuvant to immune stimulators to augment tumor immunity and prevent toxicity associated with oxidative stress” (BATU BIOLOGICS, priority 2014, dated 2017).
# Columns and labels:
# complement system = settings: human, in vivo
# [1] = in vivo, iv
# granulocytes = settings: human, in vivo
# [2] = human, in vivo
# [3] = after first phase
# [4] = test system: metastatic renal cell carcinoma
# [5] = test system: factor XII and prekallikrein; settings: human, in vivo
substance,measurement,setting,value
"IL-2: cytokine; first recombinant immunotherapeutic drug approved by the FDA, used as immune stimulator",increase of Ba protein,complement system,8.0 fold
same,increase of Bb protein,complement system,5.0 fold
same,increase of plasma C3a levels,complement system,15.6 fold
same,increase of plasma C4d concentration,complement system,4.8 fold
same,increase of plasma SC5b-9,complement system,5.0 fold
same,increase of plasma iC3b concentration,complement system,2.9 fold
same,increase of surface expression of anti-C3c on CD3 cells,complement system,6.2 fold
same,increase of surface expression of anti-SC5b-9 on CD3 cells,complement system,5.1 fold
same,half-life,[1],approximately 2 minutes
same,mean peak elastase/alpha 1-antitrypsin (E alpha 1 A),granulocytes,212 (SEM=37) ng ml-1
same,mean peak lactoferrin,granulocytes,534 (SEM=92) ng ml-1
same,half life,[2],approximately an hour
same,mean plasma ascorbic acid level,[3]; high-dose interleukin 2 alone,0.13 ± 0.08 mg/dL
same,drop of mean plasma ascorbic acid levels,"[3]; high-dose interleukin 2 alone (10(5) units/kg every 8 h, 5 days)",80%
same,patients who have to interrupt or stop therapy because of VLS,"[4]; human, in vivo",65 % of patients
same,treated patients having lethal outcome (severe VLS),"[4]; human, in vivo",approximately 1%
same,objective responses,"[4]; metastatic renal cell carcinoma patients, meta-analysis",23 % of patients
same,"factor XII level, corrected for albumin decreases",[5],80%
same,"prekallikrein level, corrected for albumin decreases",[5],50%
